scFv variants of Ab-14 (light chain) against a SARS-CoV-2 spike peptide

Reference: Engelhart et al. 2022, doi:10.1038/s41597-022-01779-4. File: FLAb, binding data.

All variants were tested on one target, the spike HR2 peptide PDVDLGDISGINAS (SARS-CoV-2).

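Phage display of a naive human antibody library on the peptide gave the parent. In library AAYL50, one, two or three CDR residues were substituted; doubles and triples were drawn at random. The scFvs were displayed on barcoded MATa yeast, the peptide on MATalpha yeast. Mating (16 h, 30 °C) was followed by selection of diploids and sequencing of their barcodes. A regression on co-assayed BCL2-family reference pairs converts the normalised counts of each replicate to an apparent Kd. The assay was run in three technical replicates.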

Each scFv is VH, the linker GGGGSGGGGSGGGGS, VL, as in the parent Ab-14, and differs from it in the CDRs of the light chain only.
VH: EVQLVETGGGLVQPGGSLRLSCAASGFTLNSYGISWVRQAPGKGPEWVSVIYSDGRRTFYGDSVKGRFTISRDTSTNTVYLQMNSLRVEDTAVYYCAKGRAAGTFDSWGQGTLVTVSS
VL: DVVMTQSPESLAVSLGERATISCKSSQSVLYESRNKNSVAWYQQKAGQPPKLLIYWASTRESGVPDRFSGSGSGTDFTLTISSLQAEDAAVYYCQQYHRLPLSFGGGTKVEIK

Variants are written as CDR1, CDR2 and CDR3 of the light chain (limits as in the source). Parent: KSSQSVLYESRNKNSVA, WASTRES, QQYHRLPLS. The read-out is the apparent dissociation constant on a log10 scale (nM): the lower, the stronger. A mean of the replicates is given; it leaves out those without a signal. Where no diploid with the target was found in that replicate, the entry reads "nd": below detection, most likely a poor binder, though not proof of it.

| # | CDR-L1 | CDR-L2 | CDR-L3 | log10 Kd (nM) by replicate | mean log10 Kd (nM) | signal with controls |
|---|---|---|---|---|---|---|
| 1 | KSSQSVLYESRNKNSVA | WATTRES | QQYHTLALS | nd / nd / nd | nd | 0 of 9 |
| 2 | ISSQSVLYESRNKNSVA | WASLRES | QWYHRLPLS | 5.89 / 5.67 / nd | 5.78 | 5 of 9 (4.50) |
| 3 | KSSQSVLYSSRNKMSVA | WASTRES | QQYHPLPLS | nd / nd / nd | nd | 2 of 9 (3.89) |
| 4 | KSSQSVLYKSRNKNSVA | WASTRES | QQYHRLPES | 1.49 / 1.87 / 2.35 | 1.90 | 1 of 9 (4.12) |
| 5 | KSSQSVLYEQRNKNSVA | WASTRES | QQYHCLPLS | nd / nd / nd | nd | 0 of 9 |
| 6 | KDSQSVGYESRNKNNVA | WASTRES | QQYHRLPLS | 0.90 / 1.05 / 0.97 | 0.97 | 1 of 9 (5.24) |
| 7 | KSSQSVLYESRNKNWVA | WASTGGS | QQYHRLPLS | nd / 3.93 / 4.59 | 4.26 | 1 of 9 (4.14) |
| 8 | KSFQSVLYGSRNKNSVA | WASQRES | QQYHRLPLS | 1.32 / 1.46 / 1.31 | 1.37 | 1 of 9 (2.90) |
| 9 | KSSQSVLYQSRIKNSVA | WASTRES | QQYHRSPLS | 3.75 / 3.89 / nd | 3.82 | 3 of 9 (4.42) |
| 10 | KSTQSVLYESRNKNSVA | AASTRES | QQYHRLPLD | -0.41 / -0.02 / -0.23 | -0.22 | 5 of 9 (4.67) |
| 11 | DSSQSVLYESRNKNKVA | WASTRES | QQYHRLPMS | nd / nd / nd | nd | 1 of 9 (3.08) |
| 12 | KSSKSVLYESRNKNSVA | NAKTRES | QQYHRLPLS | 2.10 / 2.06 / 3.07 | 2.41 | 2 of 9 (3.02) |
| 13 | KSSQSVLYESRNCNSVD | WASTRES | QPYHRLPLS | 4.69 / nd / nd | 4.69 | 2 of 9 (3.50) |
| 14 | KSCQSVLYESRNKNSVA | WALTRES | QQYHRFPLS | nd / nd / 4.21 | 4.21 | 3 of 9 (4.03) |
| 15 | KSSQSVLQSSRNKNSKA | WASTRES | QQYHRLPLS | nd / nd / nd | nd | 2 of 9 (4.11) |
| 16 | KASQSVLYESRNKNSVA | WASTRES | QQCHRLQLS | nd / nd / nd | nd | 1 of 9 (4.28) |
| 17 | KSSQSVLYSSRSKFSVA | WASTRES | QQYHRLPLS | nd / nd / nd | nd | 2 of 9 (4.38) |
| 18 | KSSQSVLYESRNKNSVA | AASTRES | QQYHWLLLS | 0.77 / 0.73 / 0.75 | 0.75 | 2 of 9 (3.88) |
| 19 | KSSQSVLYNSRNKNHVA | WNSTRES | QQYHRLPLS | 4.48 / 3.98 / nd | 4.23 | 7 of 9 (4.60) |
| 20 | KSSQSVLYESRNKWSVA | WASTREL | QQWHRLPLS | nd / nd / nd | nd | 0 of 9 |
| 21 | KSSQSVLYESVNKNSVA | WASTRES | QQYHRPPLS | nd / nd / 4.99 | 4.99 | 4 of 9 (4.54) |
| 22 | KSSQSVLYESRNLNSLA | WASTRES | QQYHRLELS | nd / nd / nd | nd | 0 of 9 |
| 23 | KSSQSVLYESRVKHSVA | WASTRES | QVYHRLPLS | 1.54 / 1.61 / 1.73 | 1.63 | 7 of 9 (5.42) |
| 24 | KPSQSVLYESRNKNSVA | WASTRES | QQYAVLPLS | 1.04 / 1.19 / 1.12 | 1.11 | 2 of 9 (4.93) |
| 25 | KSSQSVLYESRNKNSFA | WDSTRES | QQYHGLPLS | nd / nd / nd | nd | 1 of 9 (4.15) |
| 26 | KSSTSVLYESRPKNSVA | WASTRES | QQYHRLPLS | 1.66 / 1.69 / 1.71 | 1.69 | 2 of 9 (4.44) |
| 27 | KSVQSVLYESRNKNSVA | WASTRES | QQYHRLVLC | nd / nd / nd | nd | 0 of 9 |
| 28 | KSSVDVLYMSRNKNSVA | WASTRES | QQYHRLPLS | 1.50 / 1.58 / 1.55 | 1.54 | 1 of 9 (3.84) |
| 29 | KSSQSVLYESRNKNSVA | WGSTSES | IQYHRLPLS | nd / nd / nd | nd | 4 of 9 (3.94) |
| 30 | KSSQSVLYESRNKNSRA | WASTTES | QQYHRLPWS | nd / nd / nd | nd | 3 of 9 (4.19) |
| 31 | KSSQSKLYESRNKNSVW | WASCRES | QQYHRLPLS | 5.10 / 4.75 / nd | 4.92 | 2 of 9 (4.05) |
| 32 | KSSQKVLYESRNKNSVA | WLSTRES | QQYHRLPLS | 4.79 / nd / 3.80 | 4.30 | 1 of 9 (3.93) |
| 33 | KSHQSVLYESRNWNSVA | WASTRES | QQYHLLPLS | 2.65 / 2.84 / 3.77 | 3.09 | 3 of 9 (4.19) |
| 34 | KSSQSVLYESRNKNSVA | NASTRWS | QQYHRLPLF | 1.15 / 1.21 / 0.88 | 1.08 | 7 of 9 (4.35) |
| 35 | KQSQSVLYESRNKNSVA | WACTRES | QQYFRLPLS | 3.01 / 2.72 / 3.79 | 3.18 | 0 of 9 |
| 36 | KSHQSKLYESRNKNSVA | WASTAES | QQYHRLPLS | nd / nd / nd | nd | 2 of 9 (3.80) |
| 37 | KSSQSKLYESRNKNSDA | WASTRES | QQWHRLPLS | 3.93 / nd / 3.44 | 3.69 | 2 of 9 (4.28) |
| 38 | KSSQSVLYESRGKHSVA | WQSTRES | QQYHRLPLS | 3.00 / 3.04 / 2.77 | 2.94 | 3 of 9 (4.82) |
| 39 | KSSQSCLYESRNKNSVA | WASTAES | AQYHRLPLS | 4.04 / nd / nd | 4.04 | 5 of 9 (4.47) |
| 40 | KSCQQVLYESRNKNSVA | WASTCES | QQYHRLPLS | nd / nd / nd | nd | 0 of 9 |
| 41 | KSSQSVLYESRNKNSVA | WASTRES | QQYHRYPLS | 2.71 / 1.93 / 3.29 | 2.64 | 0 of 9 |
| 42 | KSSQSVLGESRNKVSVG | WASTRES | QQYHRLPLS | nd / nd / nd | nd | 0 of 9 |
| 43 | KSSQSVLYESRNKNSVA | WASDRES | QQKHRLPQS | nd / 2.09 / 4.73 | 3.41 | 1 of 9 (3.90) |

The 3 strongest on average among those seen in every replicate, once more:

CDR-L1	CDR-L2	CDR-L3	log10 Kd (nM) by replicate	mean log10 Kd (nM)	signal with controls
KSTQSVLYESRNKNSVA	AASTRES	QQYHRLPLD	-0.41 / -0.02 / -0.23	-0.22	5 of 9 (4.67)
KSSQSVLYESRNKNSVA	AASTRES	QQYHWLLLS	0.77 / 0.73 / 0.75	0.75	2 of 9 (3.88)
KDSQSVGYESRNKNNVA	WASTRES	QQYHRLPLS	0.90 / 1.05 / 0.97	0.97	1 of 9 (5.24)

Three control strains display no target. For library AAYL50, 18% of the pairings with them gave a signal, with a median of 4.19 and one signal in twenty below 2.99, so weak values seen in few replicates may be background. The control count says in how many pairings with the empty strains this scFv gave a signal, with their mean in brackets. Parent in this assay: reference entry 0.65, copy in this library 1.68.